Measured values taken from patent US20060194321A1, “Directed differentiation of embryonic stem cells and uses thereof” (priority 2005, published 2006).

Test system: Human embryonic stem cell 3 (hES3)
Test: pdx-1 expression by quantitative RT-PCR in embryoid bodies in 3D MATRIGEL (initiation protocol)
Assay type: cell-based
Method: Human embryonic stem cell 3 (hES3) were subjected to a multi-step differentiation protocol, as outlined in FIG. 2. The embryonic stem cells were cultured as embryoid bodies suspended in 3D in MATRIGEL™. The cells were cultured for 10 days in medium containing the early factors and then for 10 days in medium containing the late factors. Following culture, cells were assayed for expression of pdx-1.
To establish a baseline for comparison, human embryonic stem cells were differentiated, as described above, in 3-dimensional culture in MATRIGEL™ for 20 days. For the first 10 days the cells were cultured in the presence of early factors (Activin A: 50 ng/ml; BMP2: 50 ng/ml; BMP4: 50 ng/ml; Nodal: 50 ng/ml) and for the second 10 days the cells were cultured in the presence of late factors (Betacellulin: 50 ng/ml; HGF: 50 ng/ml; Exendin-4: 10 ng/ml, Nicotinamide: 10 mM). pdx-1 levels were measured by RT-PCR at various time points during culture of the cells in the 3D MATRIGEL™ protocol. RNA was isolated and analyzed for pdx-1 and actin expression by RT-PCR. Data were standardized in comparison to actin expression, and the results are expressed as absolute g pdx-1/kg Actin expression+/−SD.
We evaluated individual early and late factors. […] The efficacy of BMP4 and Activin A was most dramatic when the late factor mix excluded the poly(ADP-ribose) polymerase inhibitor Nicotinamide. […]

B1: BMP2: early factor, growth factor structurally related to BMP4 (protein, UniProt P12643 283-396, looked up)
Bone morphogenetic protein 2: QAKHKQRKRLKSSCKRHPLYVDFSDVGWNDWIVAPPGYHAFYCHGECPFPLADHLNSTNHAIVQTLVNSVNSKIPKACCVPTELSAISMLYLDENEKVVLKNYQDMVVEGCGCR
- pdx-1 expression with EF cocktail lacking the factor versus all four EFs (FIG. 13A, G2 versus G7): slightly greater
- contribution of the factor to induction of pdx-1 expression (factor included in or omitted from the early/late factor cocktail, day 20): optional
